Source: ChEMBL document CHEMBL1129800, “Cycloalkylpyranones and cycloalkyldihydropyrones as HIV protease inhibitors: exploring the impact of ring size on structure-activity relationships” (J Med Chem, 1996)

Molecular target: Human immunodeficiency virus type 1 protease (Human immunodeficiency virus 1, UniProt Q72874)
Experiment: Binding affinity towards HIV protease was determined

For `CCC(c1ccccc1)c1c(O)c2c(oc1=O)CCCCCC2` (stereo unspecified), the Ki was 75 nM.
